# Antibody variant affinities, Ab-14 light chain, assay B

Binding partner: SARS-CoV-2 spike HR2 peptide, sequence PDVDLGDISGINAS.

Parent: Ab-14, a human scFv built as VH, three GGGGS repeats, VL. Only the CDRs of the light chain vary.
VH: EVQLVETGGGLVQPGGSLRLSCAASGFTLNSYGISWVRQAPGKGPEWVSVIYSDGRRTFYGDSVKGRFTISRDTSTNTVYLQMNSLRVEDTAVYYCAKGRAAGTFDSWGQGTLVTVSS
VL: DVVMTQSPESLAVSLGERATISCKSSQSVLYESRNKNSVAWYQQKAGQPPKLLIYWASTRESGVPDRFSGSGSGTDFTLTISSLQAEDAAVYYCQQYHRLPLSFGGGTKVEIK

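The parent was found by panning a naive human phage display library on the peptide. Designed CDR sequences, proposed from the first random library and measured here. Group labels follow the data file (Ctrl: baseline library sampled from a position-specific scoring matrix, with some repeated check sequences; En: ensemble of fine-tuned language models; GP: Gaussian process model; GPLM: also part of the Gaussian process libraries; HC: hill climbing; Gen: genetic algorithm; Gibbs: Gibbs sampling; a sequence that several methods proposed may carry one label only). Affinity was read by AlphaSeq, a pooled yeast mating assay with surface-displayed partners. Pairs that bind mate more often; barcode pairs of the diploids are counted by sequencing. Each replicate has its own calibration line, from reference interactions of the BCL2 family. The assay was run in six technical replicates.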

The parent's light chain CDRs are KSSQSVLYESRNKNSVA, WASTRES, QQYHRLPLS; each variant's own CDRs replace them letter for letter. Each Kd is an estimate from the mating assay, the geometric mean of the replicates in which the pair was seen; lower is stronger. An entry "nd" has no value in the source: the pair was not observed among the diploids in any replicate. This suggests poor binding but is not conclusive. In the paper, a design with two or fewer of six values counts as a poor binder. The parent sequence was in this pool as ten entries: three were never detected, three once, and four in most replicates, with averages from 2.2 nM to 240 nM. A sequence measured in both rounds can read differently, since the two assays cover different ranges. Three control strains display no target. For all light chain designs, 4% of the pairings with them gave a signal, with a median of 430 nM and one signal in twenty below 38 nM, so weak values seen in few replicates may be background.

Kd,seen in,CDR-L1,CDR-L2,CDR-L3,group
1.7 nM,6 of 6,KMSQSFLMEMRNGNSVA,NASTRES,QQYHRLPLS,GP_Gibbs
1.1 nM,6 of 6,KFSQSVLYESRNKNSVA,GASTRES,QDYHRLPLS,GP_Gen
nd,0 of 6,KIQPQLQQSFASKNNVA,DRQMSAE,QQYNRLPLV,En_Gibbs
690 nM,3 of 6,KSSQSVTYESRNKNSVA,WASTRES,QQYQRLPLS,Ctrl
5.1 µM,1 of 6,KSSQSVGYESRNKNSVA,GASTRSS,QQYHRHPLS,Ctrl
600 pM,6 of 6,KLSQSMLYESRNKNNVA,DASTRES,QQYHRLPLS,GP_Gen
840 pM,6 of 6,KLSQSVLYESRQKNSVA,EASTRES,QQYHRLPLS,GP_Gen
140 nM,6 of 6,KSSQPVLYESRNKNSVA,KASTRES,QQYHRKPLS,Ctrl
980 pM,6 of 6,KSSQSGEMLSRNKNNVA,DASQRES,QQYHRLPLS,GP_Gibbs
7.2 nM,6 of 6,KISQSFLMESRNKNSVA,NASTRCW,QQYHRLPLS,GP_Gibbs
2.2 nM,6 of 6,RITHSQLDYRNPEANIA,HESMRAV,QQYSQLPLT,En_Gibbs
780 pM,6 of 6,KLQQSVLYESRNKNSVA,EASQRLS,QQYHRLPLS,GP_Gen
1.6 nM,6 of 6,KSSISYLYESPNKNSVA,EASTRED,QQYHRLPLS,GP_HC
61 nM,5 of 6,MFDQQTMNEMDKNNAVA,EVTHLVN,QQYAQLPLI,En_Gibbs
26 nM,1 of 6,IVSQLMVWGYHAKNSIA,EAELRLN,QQYDRLPLF,En_Gen
630 pM,6 of 6,KSSQSVLNESRNKASVA,DASTRES,QQYHRLPLS,GP_HC
78 nM,3 of 6,MLSQSVLYESRNKNSVA,RAFTRES,QQYHRLPLS,Ctrl
1.1 nM,6 of 6,KISQSALMEPRNKNSVA,NASQRQM,QQYHRLPLS,GP_Gibbs
4.3 nM,6 of 6,KLQQSVLYESRNCNSVA,NASTRLS,QQYHRLPLS,GP_Gen
29 nM,5 of 6,HSSPSVLYESRNKNSVA,NASTRES,QQYHRLPLH,GP_HC
3.9 nM,6 of 6,KFSQSVLYESRTWNSVA,NASTRES,QQYHRLPLS,GP_HC
14 nM,6 of 6,MISNVMNTLTRYGNNVA,DLQERED,QQYFRLPLS,En_Gen
1.1 nM,6 of 6,KFFQSELDEMRNDNSVA,NASTRLS,QQYHRLPLS,GP_Gibbs
3.5 nM,1 of 6,QISMLSLNDDSAHSNIA,AHVMLSS,QQYSHLPLS,En_Gibbs
290 pM,6 of 6,KLSQSELYESRNKNSVA,NASQRMS,QQYHRLPLS,GP_Gen
21 nM,4 of 6,KASQEKLYESRNKNSVA,DASTRES,QQYHRLPLS,GP_HC
2.8 nM,6 of 6,KQSQSQLCESRNKNSVA,DASTRES,QQYHRLPLS,GP_HC
1.3 nM,6 of 6,KFSQSVPYEERNLNNVA,NGSTRCS,QQYHRLPLS,GP_Gibbs
79 nM,1 of 6,MVSQLMLWGHLAKNSIA,EAEMRLN,QQYDRLPLF,En_Gen
590 pM,6 of 6,KLMQSDLYESRNVNNVA,QASQREL,QDYHRLPLS,GP_Gibbs
2.7 nM,6 of 6,TLSQMWGMESRNKNNVA,QESTREK,QQYFRLPIS,En_HC
98 nM,6 of 6,SLGLVTMLEYAERNNVA,NNSTREK,QQYDRLPLS,En_Gen
570 pM,6 of 6,KMMQSQLYESRMSNAVA,NASQRMS,QQYHRLPLS,GP_Gibbs
480 pM,6 of 6,KLSQSWLYESRNKNNVA,AASTRES,QQYHRLPLS,GP_Gen
5.8 nM,6 of 6,KVAQGIYEPKRHSHNIA,EASHLCD,QQYARLPLE,En_Gibbs
690 pM,6 of 6,KSSISYPYESPNKNSVA,EASTRES,QQYHRLPLS,GP_HC
24 nM,6 of 6,KFQIGFNQGSSMEHNIA,EGTYAEE,QQYARLPLQ,En_Gibbs
nd,0 of 6,MVSQLMVWGMHAKNSIA,EAQTRLN,QQYDRLPLF,En_Gen
5.1 nM,6 of 6,HITYSMQHLSKNKNSVA,NQQTRES,QQYHRLPLS,En_HC
4.6 nM,6 of 6,HFAKQLQSLYNSKQNVA,NASTVMT,QHYNRLPLS,En_Gibbs
3.3 nM,6 of 6,HMSMLTLGGMRQRNSVA,QMTTREN,QQYDRLPLS,En_Gen
290 pM,6 of 6,KFSQSVLLESRTKNSVA,NASTRES,QQYHRLPLS,GP_HC
3.4 nM,6 of 6,MISQLYNMGQFAINSVA,QANLREE,QQYDRLPLI,En_Gen
1.0 nM,6 of 6,KLSQSDLYESRNKNAVA,GASTRES,QQYHRLPLS,GP_Gen
3.1 nM,6 of 6,KLAMILSMWADTYHGVA,DANHKAD,QQYNRLPLS,En_Gibbs
210 nM,5 of 6,KSSQSVLQESRNKNSVA,WASTRES,KQYHRLPLS,Ctrl
10 nM,6 of 6,KSSYSYLYESGNKNSVA,EASTRES,QQYHRLPLS,GPLM_HC

Excerpt, the final 3 entries:

{"CDR-L1": "KLAMILSMWADTYHGVA", "CDR-L2": "DANHKAD", "CDR-L3": "QQYNRLPLS", "group": "En_Gibbs", "Kd": "3.1 nM", "seen in": "6 of 6"}
{"CDR-L1": "KSSQSVLQESRNKNSVA", "CDR-L2": "WASTRES", "CDR-L3": "KQYHRLPLS", "group": "Ctrl", "Kd": "210 nM", "seen in": "5 of 6"}
{"CDR-L1": "KSSYSYLYESGNKNSVA", "CDR-L2": "EASTRES", "CDR-L3": "QQYHRLPLS", "group": "GPLM_HC", "Kd": "10 nM", "seen in": "6 of 6"}

Source: Li et al. 2023 (doi:10.1038/s41467-023-39022-2), MIT Lincoln Laboratory and A-Alpha Bio; data file from the FLAb repository.